Earlier results as cited in patent US20100063116A1 (priority 2006, published 2010).

Assays:
[1] = immediate release tablets, oral

SMILES: CCCN[C@H]1CCc2nc(N)sc2C1.Cl.Cl.O [Pramipexole dihydrochloride, (S)-2-amino-4,5,6,7-tetrahydro-6-(propylamino)benzothiazole dihydrochloride monohydrate]
- solubility in dichloromethane: practically insoluble
- time to peak concentrations [1]: approximately 2 hours
